# Ab-14 heavy chain CDR variants: yeast mating affinities

The measurements come from Li et al. 2023 (doi:10.1038/s41467-023-39022-2) through the FLAb antibody collection.

Target: peptide PDVDLGDISGINAS, taken from heptad repeat 2 (HR2) of SARS-CoV-2 spike.

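The starting antibody came from a phage panning campaign against this peptide. The variants were designed computationally from a first round of random CDR variants and then made and measured. Their group label is 14H_En_Gen (En: ensemble of fine-tuned language models; Gen: genetic algorithm). AlphaSeq pools MATa yeast showing the antibodies with MATalpha yeast showing the peptide. Binding brings cells together so that they mate, and sequencing counts the barcode pairs among the diploids. Read counts were normalised to the haploid input and turned into Kd by a linear fit to BCL2-family pairs of known affinity, for each replicate. Mating was done six times.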

Ab-14 is the parent antibody, in scFv form: VH, then three GGGGS repeats, then VL. The light chain is unchanged in all variants.
VH: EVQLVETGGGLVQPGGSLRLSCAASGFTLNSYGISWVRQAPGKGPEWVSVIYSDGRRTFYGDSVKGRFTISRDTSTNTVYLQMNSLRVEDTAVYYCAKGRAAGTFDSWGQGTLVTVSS
VL: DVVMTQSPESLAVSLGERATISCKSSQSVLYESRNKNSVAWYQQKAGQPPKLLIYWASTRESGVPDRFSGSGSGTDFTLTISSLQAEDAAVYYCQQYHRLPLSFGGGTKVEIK

The parent's heavy chain CDRs are GFTLNSYGIS, VIYSDGRRTFYGDSVK, GRAAGTFDS; each variant's own CDRs replace them letter for letter.
Numbers give log10(Kd / nM), so 0 is 1 nM and 3 is 1 µM. Smaller is tighter.
Where no diploid with the target was found in that replicate, the entry reads "ND": below detection, most likely a poor binder, though not proof of it.

With GFDLNEYGIS / VIYADGKRTFYADDVK / GNVAGTFDV the result was 0.81, -0.15, 0.07, 0.91, 0.07, 0.54 (controls 0 of 18).
With GFDLNEYGIS / VIYADGMRTAYIDSVK / GETAGTFDI the result was -0.39, -0.28, -0.77, -0.84, -1.07, -0.26 (controls 1 of 18).
With GFDLDEYGIS / VIYADGKRTAYADKVK / GNQAGTFDV the result was 0.93, -0.20, 0.11, -0.55, -0.59, -0.46 (controls 1 of 18).
With GFDLNEYGIS / VIYADGMRKYYADSVK / GENAGTFDV the result was -0.18, -0.71, -0.89, -0.99, -0.41, -0.47 (controls 0 of 18).
With GFDLNEYGIS / VIYADGMRTFYADSVK / GETAGTFDI the result was -0.44, -0.37, -0.60, -0.34, -0.43, -0.24 (controls 1 of 18).
With GFDLNEYGIS / VIYADGSRTVYADSVK / GNVAGTFDQ the result was 0.46, -0.28, -0.38, -0.31, -0.04, -0.15 (controls 1 of 18).
With GFDLNEYGIS / VIYADGSRTAYADNVK / GEVAGTFDL the result was 0.12, 0.14, -0.14, 0.33, 0.53, 0.68 (controls 0 of 18).
With GFDLNEYGIS / VIYADGQRTAYADSVK / GNNAGTFDQ the result was 0.10, 0.20, 0.10, 0.14, -0.07, 0.27 (controls 0 of 18).
With GFDLNEYGIS / VIYADGQRTAYANSVK / GNVAGTFDL the result was -0.11, -0.69, -0.24, -0.76, -0.62, -0.36 (controls 0 of 18).
With GFDLNEYGIS / VIYADGMRTAYTDSVK / GNQAGTFDM the result was -0.05, -0.35, -0.03, -0.37, -0.30, 0.10 (controls 0 of 18).
With GFDLNEYGIS / VIYADGMRTAYVDNVK / GEVAGTFDQ the result was -0.33, -0.46, -0.13, -0.24, -0.68, -0.07 (controls 1 of 18).
With GFDLNEYGIS / VIYADGKRTAYSDSVK / GQNAGTFDM the result was -0.45, -0.12, 0.42, -0.51, 0.16, 0.23 (controls 0 of 18).
With GFDLNEYGIS / VIYADGMRTAYVDDVK / GENAGTFDI the result was -0.73, -0.40, -0.61, -1.27, -0.75, -0.75 (controls 0 of 18).
With GFDLDEYGIS / VIYADGMRTAYADSVK / GNVAGTFDQ the result was -0.35, -0.03, -0.75, -0.46, -0.47, -0.44 (controls 0 of 18).
With GFDLNEYGIS / VIYADGRRTAYADSVK / GGNAGTFDQ the result was 0.01, -0.61, -0.14, 0.15, -0.21, -0.08 (controls 0 of 18).
With GFNLDEYGIS / VIYADGMRTAYADSVK / GNQAGTFDV the result was 0.12, -0.06, -0.40, -0.47, -0.37, -0.16 (controls 1 of 18).
With GFDLNEYGIS / VIYADGMRTAYADSVK / GEVAGTFDQ the result was -0.48, -0.34, -0.56, -0.73, -0.53, -0.23 (controls 0 of 18).
With GFDLDEYGIS / VIYADGMRTAYADSVK / GNVAGTFDV the result was -0.17, -0.46, -0.42, -0.26, -0.65, -0.33 (controls 0 of 18).
With GFDLDEYGIS / VIYADGSRTAYADSVK / GETAGTFDV the result was -0.06, -0.12, -0.38, -0.56, -0.05, 0.07 (controls 2 of 18).
With GFDLNEYGIS / VIYADGKRTAYSDNVK / GNVAGTFDV the result was ND, ND, ND, ND, 0.58, ND (controls 0 of 18).
With GFDLDEYGIS / VIYADGKRTAYVDSVK / GNVAGTFDL the result was ND, 0.26, -0.08, -0.66, 1.18, 0.48 (controls 0 of 18).
With GFDLNEYGIS / VIYADGKRTAYSDSVK / GEVAGTFDT the result was -0.09, -0.39, -0.71, -0.43, -0.41, 0.39 (controls 0 of 18).
With GFDLEDYGIS / VIYADGQRTAYADSVK / GENAGTFDV the result was 0.02, -0.13, 0.34, 0.27, 0.17, 0.29 (controls 1 of 18).
With GFDLDEYGIS / VIYADGVRTAYADDVK / GENAGTFDL the result was 0.62, ND, 0.29, 0.50, 0.04, 0.72 (controls 0 of 18).
With GFDLNEYGIS / VIYADGMRTFYADDVK / GNNAGTFDL the result was -0.46, -0.78, -0.78, -0.62, -0.56, -0.53 (controls 0 of 18).
With GFDLDEYGIS / VIYADGMRTAYADDVK / GGNAGTFDV the result was 0.00, -0.50, -0.41, -0.27, -0.50, 0.01 (controls 0 of 18).
With GFDLDEYGIS / VIYADGMRTFYSDSVK / GNVAGTFDL the result was -0.26, -0.62, -0.70, -0.91, -0.55, -0.27 (controls 0 of 18).
With GFDLNEYGIS / VIYADGQRTAYADSVK / GSNAGTFDV the result was -0.27, -0.01, -0.02, -0.11, 0.12, 0.09 (controls 0 of 18).
With GFDLDEYGIS / VIYADGKRTYYADSVK / GNVAGTFDQ the result was -0.93, -0.09, -1.16, -1.01, -0.74, -0.40 (controls 0 of 18).
With GFDLDEYGIS / VIYADGMRTAYADNVK / GETAGTFDQ the result was -0.38, -0.30, 0.01, -0.21, -0.41, -0.26 (controls 0 of 18).
With GFDLNEYGIS / VIYADGKRKAYADDVK / GNVAGTFDV the result was ND, 0.51, ND, 0.67, ND, ND (controls 0 of 18).
With GFDLDEYGIS / VIYADGMRTAYADSVK / GGNAGTFDL the result was -0.01, 0.04, -0.35, -0.37, -0.66, -0.24 (controls 0 of 18).
With GFDLNEYGIS / VIYADGMRTAYSDSVK / GEVAGTFDQ the result was 0.12, -0.72, -1.13, -1.51, -0.92, -0.66 (controls 1 of 18).
With GFDLNEYGIS / VIYADGMRTFYADSVK / GNNAGTFDT the result was -0.23, -0.24, -0.31, -0.58, -0.42, -0.31 (controls 0 of 18).
With GFDLDEYGIS / VIYADGKRTFYADSVK / GNVAGTFDL the result was 0.17, -0.43, -0.32, -0.15, -0.79, -0.45 (controls 0 of 18).
With GFDLNEYGIS / VIYADGRRTAYADSVK / GGNAGTFDM the result was -0.12, -0.11, -0.32, -0.33, -0.30, -0.11 (controls 2 of 18).
With GFDLDEYGIS / VIYADGSRTAYADDVK / GENAGTFDV the result was -0.04, 0.00, -0.27, -0.45, -0.20, 0.20 (controls 1 of 18).
With GFDLNEYGIS / VIYADGMRTAYADDVK / GSNAGTFDI the result was -0.90, -0.65, -0.85, -0.98, -0.84, -0.80 (controls 0 of 18).
With GFDLNEYGIS / VIYADGKRTAYTDSVK / GSNAGTFDV the result was -0.53, -0.79, -0.61, -0.78, -0.72, -0.50 (controls 0 of 18).
With GFDLNEYGIS / VIYADGMRTYYADSVK / GENAGTFDL the result was 0.07, -0.27, -0.27, -0.38, -0.18, -0.14 (controls 0 of 18).
With GFDLNEYGIS / VIYADGMRTAYSDDVK / GEVAGTFDT the result was -0.46, -0.97, -0.61, -0.71, 0.84, -0.63 (controls 0 of 18).
With GFDLDEYGIS / VIYADGVRTAYSDSVK / GNVAGTFDV the result was 0.28, 0.01, 0.04, -0.08, -0.19, 0.30 (controls 0 of 18).
With GFDLNEYGIS / VIYADGVRTAYQDSVK / GNVAGTFDV the result was -0.43, -0.50, -0.73, -0.87, -0.70, -0.64 (controls 0 of 18).
With GFDLNEYGIS / VIYADGSRTAYADSVK / GETAGTFDQ the result was 0.89, 1.30, 0.26, 0.58, 1.51, 1.42 (controls 1 of 18).
With GFDLNEYGIS / VIYADGMRTYYSDSVK / GNVAGTFDI the result was -0.33, -0.41, -0.75, -0.61, -0.51, -0.40 (controls 0 of 18).
With GFDLDEYGIS / VIYADGQRTAYADSVK / GEQAGTFDV the result was 0.43, -0.34, -0.52, -0.70, 0.00, 0.26 (controls 1 of 18).
With GFDLDEYGIS / VIYADGMRTFYADSVK / GENAGTFDI the result was 0.56, 0.03, 0.17, 0.52, 0.19, 0.61 (controls 0 of 18).
With GFDLNEYGIS / VIYADGMRTYYADSVK / GNVAGTFDT the result was -0.29, -0.34, -0.22, -0.29, -0.44, -0.29 (controls 0 of 18).
With GFDLNEYGIS / VIYADGMRKVYADSVK / GNVAGTFDT the result was 0.32, -0.01, -0.09, 0.06, 0.33, 0.47 (controls 0 of 18).
With GFDLNEYGIS / VIYADGKRTVYADSVK / GENAGTFDM the result was -0.12, -0.06, -0.32, -0.45, -0.21, -0.18 (controls 0 of 18).
With GFDLNEYGIS / VIYADGMRTAYTDKVK / GENAGTFDV the result was -0.37, -1.11, -0.76, -0.74, -0.63, -0.75 (controls 0 of 18).
With GFDLNEYGIS / VIYADGMRTAYADSVK / GDVAGTFDV the result was -0.81, -0.85, -1.15, -0.28, -0.71, -0.10 (controls 0 of 18).

In the paper, a design with two or fewer of six values counts as a poor binder.
As a blank, each scFv also met three strains without target: over all heavy chain designs, 1% of these pairings were detected, typically at 2.08 and seldom below 0.84. The control count says in how many pairings with the empty strains this scFv gave a signal.
A sequence measured in both rounds can read differently, since the two assays cover different ranges.